The target in one test is recombinant human sEH (Homo sapiens, UniProt P34913). Nature of the test: Inhibition of sEH (fluorescent assay, CMNPC substrate). To be noted: for IC50: read-out: Inhibition sEH (IC50), human sEH, pH 7.4, 30 °C, [S]=5 μM; for sEH activity in words: summary of Table 1.
The target of a further test is human S1R (Homo sapiens, UniProt Q99720). Nature of the test: Binding to S1R ([3H]-(+)-pentazocine, transfected HEK-293 membranes). The note with it: for Ki: read-out: Binding S1R (Ki), human S1R, [3H]-(+)-pentazocine 5 nM, 37 °C, 120 min, pH 8; for S1R binding in words: summary of Table 1.

The chains behind the UniProt entries cited, without tags or fusion partners. Where a name states a change or a piece, a line headed by the entry shows the natural chain unless it says otherwise.
UniProt P34913, whole entry: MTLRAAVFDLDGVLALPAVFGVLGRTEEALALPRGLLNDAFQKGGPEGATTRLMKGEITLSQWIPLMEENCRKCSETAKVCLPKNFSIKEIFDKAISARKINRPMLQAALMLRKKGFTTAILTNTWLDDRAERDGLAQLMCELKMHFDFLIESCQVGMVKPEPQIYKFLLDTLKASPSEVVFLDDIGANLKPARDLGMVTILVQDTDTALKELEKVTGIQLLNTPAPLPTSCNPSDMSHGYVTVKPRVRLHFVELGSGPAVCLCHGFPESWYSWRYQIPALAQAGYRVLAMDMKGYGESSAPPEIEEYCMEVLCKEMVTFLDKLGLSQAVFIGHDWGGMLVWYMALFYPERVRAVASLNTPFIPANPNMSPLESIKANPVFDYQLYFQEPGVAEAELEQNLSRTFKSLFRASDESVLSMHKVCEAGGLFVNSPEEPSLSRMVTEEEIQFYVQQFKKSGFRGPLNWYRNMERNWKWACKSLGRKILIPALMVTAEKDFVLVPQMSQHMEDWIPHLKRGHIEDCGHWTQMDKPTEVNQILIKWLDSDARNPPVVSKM
UniProt Q99720, whole entry: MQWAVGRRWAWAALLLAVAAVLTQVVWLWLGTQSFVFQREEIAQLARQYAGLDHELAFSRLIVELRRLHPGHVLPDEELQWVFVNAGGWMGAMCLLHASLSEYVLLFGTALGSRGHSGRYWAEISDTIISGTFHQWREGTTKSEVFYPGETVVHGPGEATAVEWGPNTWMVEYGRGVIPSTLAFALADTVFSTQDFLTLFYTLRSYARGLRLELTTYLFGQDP

A value given as a limit tells only on which side of the number the result lay.

By IC50 is commonly meant the concentration at which inhibition is half-maximal. The Ki is the dissociation constant of the complex between target and ligand, obtained from inhibition or displacement. As to `O=C(NCc1ccc(Br)cc1C(F)(F)F)C1CCN(Cc2ccc(I)cc2)CC1`, the IC50 at recombinant human sEH was below 10 nM. Further, the Ki at human S1R is below 50 nM.
For `N#Cc1ccc(CNC(=O)C2CCN(Cc3cccc(F)c3)CC2)c(C(F)(F)F)c1` the same measures were below 10 nM and 150 to 400 nM.
With `CC(=O)N1CCC(NC(=O)NC23CC4CC(CC(C4)C2)C3)CC1`, on human S1R, the Ki is above 1000 nM and the “S1R binding in words” value is reported as “no significant binding to S1R”.
On to `O=C(NCc1ccc(Cl)cc1Cl)C1CCN(Cc2ccccc2)CC1`, for which, on recombinant human sEH, the IC50 was below 10 nM. In addition, on human S1R, the Ki was below 50 nM.
For `N#Cc1ccc(CNC(=O)C2CCN(Cc3ccsc3)CC2)c(Cl)c1`, in that order: 10 to 50 nM and below 50 nM.
For `N#Cc1ccc(CNC(=O)C2CCN(Cc3ccccc3F)CC2)c(C(F)(F)F)c1` the same measures were below 10 nM and 50 to 150 nM.
For `O=C(NCc1ccc(Cl)cc1Cl)C1CCN(Cc2ccccc2F)CC1`, in that order: 10 to 50 nM and below 50 nM.
Take `N#Cc1ccc(CNC(=O)C2CCN(CCc3ccccc3)CC2)c(OC(F)(F)F)c1`: at recombinant human sEH, the IC50 lay in the range of 10 to 50 nM. The Ki on human S1R lay in the range of 50 to 150 nM.
Take `COc1ccc(CNC(=O)C2CCN(Cc3ccc(I)cc3)CC2)c(OC(F)(F)F)c1`: at recombinant human sEH, the IC50 is below 10 nM. Also, the Ki at human S1R is below 50 nM.
For `O=C(NCc1ccc(Br)cc1OC(F)(F)F)C1CCN(CCc2ccccc2)CC1` the same measures were below 10 nM and below 50 nM.
For `COc1ccc(CN2CCC(C(=O)NCc3ccc(Br)cc3OC(F)(F)F)CC2)cc1` the same measures were below 10 nM and below 50 nM.
For `N#Cc1ccc(CNC(=O)C2CCN(Cc3ccc(F)cc3)CC2)c(C(F)(F)F)c1` the same measures were below 10 nM and 50 to 150 nM.
On to `O=C(NCc1ccc(Cl)cc1Cl)C1CCN(CCc2ccccc2)CC1`, for which the IC50 on recombinant human sEH lay within 10 to 50 nM. Moreover, the Ki on human S1R is below 50 nM.
For `Cc1cccc(CN2CCC(C(=O)NCc3ccc(C#N)cc3C(F)(F)F)CC2)c1`, in that order: below 10 nM and 150 to 400 nM.
For `O=C(NCc1ccc(Cl)cc1Cl)C1CCN(Cc2ccc(Cl)cc2)CC1` the same measures were 10 to 50 nM and below 50 nM.
With `Cc1cc(OCCN2CCOCC2)nn1-c1ccc2ccccc2c1`, on recombinant human sEH, the half-maximal inhibitory concentration (IC50) is above 1000 nM and the “sEH activity in words” value is “inactive in sEH”.
`O=C(NCc1ccc(S(F)(F)(F)(F)F)cc1F)C1CCN(Cc2ccccc2)CC1`: on recombinant human sEH, the IC50 lay within 50 to 100 nM. Moreover, the Ki on human S1R is 50 to 150 nM.
For `O=C(NCc1ccc(Cl)cc1C(F)(F)F)C1CCN(Cc2ccsc2)CC1`, in that order: 10 to 50 nM and below 50 nM.
For `N#Cc1ccc(CNC(=O)C2CCN(Cc3ccccc3)CC2)c(OC(F)(F)F)c1`, in that order: below 10 nM and 50 to 150 nM.
For `COc1ccc(CNC(=O)C2CCN(Cc3ccccc3)CC2)c(OC(F)(F)F)c1`, the IC50 on recombinant human sEH was below 10 nM. Also, at human S1R, the Ki was 150 to 400 nM.
For `O=C(NCc1ccc(F)cc1C(F)(F)F)C1CCN(Cc2ccccc2)CC1` the same measures were below 10 nM and below 50 nM.
With `Cc1ccc(CN2CCC(C(=O)NCc3ccc(Cl)cc3Cl)CC2)cc1`, the IC50 at recombinant human sEH lay within 10 to 50 nM. The Ki at human S1R is below 50 nM.
For `O=C(NCc1cccc(Br)c1Cl)C1CCN(Cc2ccccc2)CC1` the same measures were 50 to 100 nM and below 50 nM.
For `N#Cc1ccc(CNC(=O)C2CCN(Cc3ccco3)CC2)c(C(F)(F)F)c1`, at recombinant human sEH, the IC50 fell in the range of 10 to 50 nM. Moreover, the Ki on human S1R is 150 to 400 nM.
For `O=C(NCc1ccc(Br)cc1OC(F)(F)F)C1CCN(Cc2ccc(F)cc2)CC1`, in that order: below 10 nM and below 50 nM.
For `COc1cc(OC(F)(F)F)ccc1CNC(=O)C1CCN(Cc2ccccc2)CC1`, in that order: 50 to 100 nM and below 50 nM.
For `O=C(NCc1ccc(Cl)cc1OC(F)(F)F)C1CCN(Cc2ccsc2)CC1`, in that order: below 10 nM and below 50 nM.
With `COc1ccc(CN2CCC(C(=O)NCc3ccc(C#N)cc3Cl)CC2)cc1`, on recombinant human sEH, the IC50 fell in the range of 10 to 50 nM. Also, on human S1R, the Ki was in the range of 50 to 150 nM.
For `COc1ccc(CN2CCC(C(=O)NCc3ccc(Cl)cc3OC(F)(F)F)CC2)cc1` the same measures were below 10 nM and below 50 nM.
For `O=C(NCc1ccccc1OC(F)(F)F)C1CCN(c2ncccn2)CC1` the same measures were below 10 nM and above 1000 nM.
Consider `N#Cc1ccc(CNC(=O)C2CCN(Cc3ccc(I)cc3)CC2)c(C(F)(F)F)c1`, for which, at recombinant human sEH, the IC50 was below 10 nM. In addition, the Ki on human S1R fell in the range of 50 to 150 nM.
For `O=C(NCc1ccc(F)cc1C(F)(F)F)C1CCN(Cc2ccc(I)cc2)CC1`, in that order: below 10 nM and below 50 nM.
For `O=C(NCc1ccc(Cl)cc1OC(F)(F)F)C1CCN(CCc2ccccc2)CC1`, in that order: below 10 nM and below 50 nM.
As for `N#Cc1ccc(CNC(=O)C2CCN(Cc3ccsc3)CC2)c(OC(F)(F)F)c1`, the IC50 on recombinant human sEH is below 10 nM. Besides, the Ki on human S1R is below 50 nM.
For `O=C(NCc1cc(Cl)cc(Cl)c1Cl)C1CCN(Cc2ccccc2)CC1` the same measures were 50 to 100 nM and below 50 nM.
For the molecule `N#Cc1ccc(CNC(=O)C2CCN(Cc3ccc(F)c(F)c3)CC2)c(C(F)(F)F)c1`, on recombinant human sEH, the IC50 was below 10 nM. In addition, at human S1R, the Ki is below 50 nM.
Take `Cc1ccc(CN2CCC(C(=O)NCc3ccc(C#N)cc3C(F)(F)F)CC2)cc1`: the IC50 at recombinant human sEH was in the range of 10 to 50 nM. In addition, the Ki on human S1R is below 50 nM.
For `COc1ccc(CNC(=O)C2CCN(Cc3ccccc3)CC2)c(C(F)(F)F)c1` the same measures were below 10 nM and 50 to 150 nM.
For `COc1ccc(CN2CCC(C(=O)NCc3ccc(C#N)cc3OC(F)(F)F)CC2)cc1`, in that order: below 10 nM and below 50 nM.
For `O=C(NCc1ccc(Cl)cc1OC(F)(F)F)C1CCN(Cc2ccccc2)CC1` the same measures were below 10 nM and below 50 nM.
In the case of `COc1ccc(CNC(=O)C2CCN(Cc3ccccc3)CC2)c(Cl)c1`, the IC50 on recombinant human sEH lay in the range of 10 to 50 nM. At human S1R, the Ki lay in the range of 150 to 400 nM.
For `N#Cc1ccc(CNC(=O)C2CCN(Cc3ccccc3)CC2)c(Cl)c1`, in that order: below 10 nM and 50 to 150 nM.
For `COc1cccc(CNC(=O)C2CCN(Cc3ccccc3)CC2)c1C(F)(F)F`, in that order: 10 to 50 nM and 150 to 400 nM.
In the case of `CCCN(CCC)CCc1ccc(OC)c(OCCc2ccccc2)c1`, at recombinant human sEH, the IC50 was above 1000 nM and the “sEH activity in words” value is “inactive in sEH”.
With `O=C(NCc1cccc(Cl)c1C(F)(F)F)C1CCN(Cc2ccccc2)CC1`, at recombinant human sEH, the IC50 is below 10 nM. For the same molecule, the Ki on human S1R was below 50 nM.
For `O=C(NCc1ccc(Cl)cc1C(F)(F)F)C1CCN(CCc2ccccc2)CC1` the same measures were 10 to 50 nM and below 50 nM.
For `O=C(OCCN1CCOCC1)C1(c2ccccc2)CCCCC1`, on recombinant human sEH, the IC50 was above 1000 nM and the “sEH activity in words” value was “inactive in sEH”.
With `COc1ccc2c(c1)[C@]13CCCC[C@@H]1[C@H](C2)N(C)CC3`, on recombinant human sEH, the IC50 was above 1000 nM and the “sEH activity in words” value was “inactive in sEH”.
Regarding `CC[C@H](C)C(=O)N1CCC(NC(=O)Nc2ccc(OC(F)(F)F)c(F)c2)CC1`, on human S1R, the Ki is above 1000 nM and the “S1R binding in words” value is given as “no significant binding to S1R”.
With `OC(CCCN1CCN(c2ncc(F)cn2)CC1)c1ccc(F)cc1` (stereo not shown), at recombinant human sEH, the IC50 was above 1000 nM and the “sEH activity in words” value was “inactive in sEH”.
